The IC50 is the point on the concentration scale where inhibition reaches its midpoint. A higher IC50 goes with lower potency.

In test [1] the test system is MDA-MB-453 HER2-positive breast cancer cell line. Description: Luminescent cell viability assay (CellTiter glo), subtype-specific breast cancer cell lines. The class given is cell-based.
Test [2] relates to HCC1419 HER2-positive breast cancer cell line. The test is described as above. The class given is cell-based.

In the case of “Herceptin: positive control drug, HER2-positive breast cancer [reference compound]”, the IC50 in test [1] and in test [2] was ≥ 25 µM each time.

(Values after US12527762B2 (priority 2021, dated 2026).)
